Earlier results on 1 substance are cited in patent US12100485B2, “Machine learning and molecular simulation based methods for enhancing binding and activity prediction” (The Board of Trustees of the Leland Stanford Junior …, priority 2018, dated 2024).

This is a selection: effects in other tests are not listed, and their absence says nothing.

The subject of the series is μOR. The following applies: known pharmacology, training dataset.

As for bezitramide, the Action entry is given as “agonist”.
